Reference: BindingDB's records for doi:10.1007/pl00005131 (UniversitÄT WÜRzburg, 1998)
“And” between values parts separate entries of the source, which are not always exact repeats. Equal values may be shown once.

By UniProt entry, the sequences of proteins in these tests, tags left out.
UniProt P0DMS8, whole entry: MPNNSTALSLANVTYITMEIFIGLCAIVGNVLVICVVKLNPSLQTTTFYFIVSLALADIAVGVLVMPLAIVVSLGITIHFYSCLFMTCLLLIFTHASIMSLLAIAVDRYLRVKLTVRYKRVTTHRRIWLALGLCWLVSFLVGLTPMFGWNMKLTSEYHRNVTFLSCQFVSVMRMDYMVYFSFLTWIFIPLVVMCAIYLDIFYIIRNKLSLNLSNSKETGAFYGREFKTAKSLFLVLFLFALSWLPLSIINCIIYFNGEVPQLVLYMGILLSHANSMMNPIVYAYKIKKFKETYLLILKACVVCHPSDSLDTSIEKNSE

Molecular target: Adenosine receptor A3 (Homo sapiens, UniProt P0DMS8)

Ki	Compound
0.64 nM	CNC(=O)[C@H]1O[C@@H](n2cnc3c(NCc4ccc(N)c(I)c4)ncnc32)[C@H](O)[C@@H]1O
16.3 nM and 44.6 nM	CC(Cc1ccccc1)Nc1ncnc2c1ncn2C1OC(CO)C(O)C1O (configuration not stated) [R-N6-(2-phenylisopropyl) adenosine]
